Data reported in US12507703B2, “Methods, devices and compositions for preserving human milk” (The Trustees of Princeton University, priority 2023, dated 2025).

System: lipase
Test: Lipase/lipolysis assay (EnzChek Lipase Substrate, quenched BODIPY-fatty acid conjugate) on stored human milk
[1] = compound added to fresh human milk, stored 1 week at −20° C., thawed at room temperature, RFU <400 considered a hit
[2] = Food-Sourced Compound Library compound added to fresh human milk, stored 1 week at −20° C., thawed at room temperature, RFU <400 considered a hit
[3] = Biolog PM4 compound added to fresh human milk, stored 1 week at −20° C., RFU <400 = hit
[4] = Food Additive Library compound added to fresh human milk, stored 1 week at −20° C., thawed at room temperature, RFU of <400 considered a hit
[5] = Biolog PM2a compound added to fresh human milk, stored 1 week at −20° C., RFU <400 = hit
[6] = Biolog PM1 compound added to fresh human milk, stored 1 week at −20° C., RFU <400 = hit
[7] = Biolog PM5 compound added to fresh human milk, stored 1 week at −20° C., RFU <400 = hit

Lipase (RFU) [1]	Lipase (RFU) [2]	Compound	further results
738.6152 RFU		Oc1cccc2ccccc12 [Compound 1-Naphthol, 1-Naphthol]	
	818.9774 RFU	O=C1OC[C@H]2OC(O)[C@H](O)[C@@H](O)[C@@H]2OC(=O)c2cc(O)c(O)c(O)c2-c2c(O)c(O)c3oc(=O)c4c(c(O)c(O)c5oc(=O)c2c3c54)-c2c1cc(O)c(O)c2O (mixture of isomers) [Punicalin]	
		N=C(N)NCCC[C@H](NP(=O)(O)O)C(=O)O [Phospho-L-Arginine]	Lipase (RFU) [3]: 783.4713 RFU
		O=C(O)C1CCCCC1 [Cyclohexanecarboxylic acid]	Lipase (RFU) [4]: 985.8444 RFU
		Nc1nc2c(ncn2[C@@H]2O[C@H](CO)[C@@H](O)[C@H]2OP(=O)(O)O)c(=O)[nH]1 [Guanosine-2′-monophosphate]	Lipase (RFU) [3]: 884.9602 RFU
915.378 RFU		CCCCCCCCCCCC(=O)OC [Methyl laurate]	Lipase (RFU) [4]: 1102.654 RFU
		CCCCCCCCCCCCCCCC(=O)OC[C@H](O)[C@H]1OC(=O)C(O)=C1O [6-O-Palmitoyl-L-ascorbic acid]	Lipase (RFU) (Table 7, single compound 20 mg/mL, human milk stored 1 week at −20° C., inhibited if RFU <400): 796.394 RFU
	925.0304 RFU	O=C1O[C@H]([C@@H](O)CO)C(=O)C1=O [Dehydroascorbic acid]	
		C=CCSSSCC=C [Diallyl Trisulfide]	Lipase (RFU) [4]: 1075.357 RFU
922.8975 RFU		CC(C)=CCC/C(C)=C/COc1c2occc2cc2ccc(=O)oc12 [8-Geranyloxypsoralen]	
	1053.017 RFU	OC[C@H]1OC[C@H](O)[C@@H](O)[C@@H]1O [1,5-Anhydrosorbitol]	
942.2476 RFU		CC(C)=CCc1c(O)ccc(-c2coc3cc(O)cc(O)c3c2=O)c1O [Licoisoflavone A]	
	826.0249 RFU	Liensinine (Diperchlorate)	
	704.4034 RFU	NCC(=O)NCC(=O)O [Glycylglycine] (H-Gly-Gly-OH)	
		COc1cc(C(=O)O)ccc1O [Vanillic acid]	Lipase (RFU) [4]: 1052.276 RFU
		CCCCCCCCCC(=O)O [Capric Acid]	Lipase (RFU) [5]: 943.0875 RFU
878.4604 RFU		O=c1oc2c(O)c(O)cc3c(=O)oc4c(O)c(O)cc1c4c23 [Ellagic acid]	
		O=C(O)CC(Br)C(=O)O (centres unmarked) [Bromo Succinic Acid]	Lipase (RFU) [6]: 1206.804 RFU
1039.458 RFU		COC(=O)Cc1c[nH]c2ccccc12 [Methyl 2-(1H-indol-3-yl)acetate]	
		COC(=O)C(O)CC(C)C (centres unmarked) [Methyl 2-hydroxy-4-methylvalerate]	Lipase (RFU) [4]: 1043.833 RFU
1207.487 RFU		Cc1c[nH]c(=O)nc1N [Compound 5-Methylcytosine, 5-Methylcytosine]	
	1134.624 RFU	CC(C)c1cc2c(c(O)c1O)[C@@]13CCCC(C)(C)[C@@H]1C[C@@H]2OC3=O [Carnosol]	
		O=C1CC[C@@H](C(=O)O)N1 [L-Pyroglutamic Acid]	Lipase (RFU) [5]: 891.6509 RFU
	813.0722 RFU	C[C@@H]1CC[C@]2(C(=O)O)CC[C@]3(C)C(=CC[C@@H]4[C@@]5(C)CC[C@H](O)C(C)(C)[C@@H]5CC[C@]43C)[C@@H]2[C@]1(C)O [Pomolic acid]	
		O=C(O)CCCC[C@@H]1SC[C@@H]2NC(=O)N[C@@H]21 [D-Biotin]	Lipase (RFU) [7]: 697.9239 RFU

Lipase (RFU) [1]	Lipase (RFU) [2]	Compound	further results
		COc1ccccc1C [Compound 2-Methylanisole, 2-Methylanisole]	Lipase (RFU) [4]: 800.3148 RFU
1048.324 RFU		Cn1c(=O)ccn([C@@H]2O[C@H](CO)[C@@H](O)[C@H]2O)c1=O [Compound 3-Methyluridine, 3-Methyluridine]	
		NCCCCNCCCN [Spermidine]	Lipase (RFU) [7]: 994.6739 RFU
		O=C(O)[C@]1(O)C[C@@H](O)[C@@H](O)[C@H](O)C1 [Quinic Acid]	Lipase (RFU) [5]: 1030.135 RFU
		OC[C@H]1O[C@@H](n2cnc3c(O)ncnc32)[C@H](O)[C@@H]1O [Inosine]	Lipase (RFU) [6]: 739.9959 RFU; Lipase (RFU) [7]: 959.6179 RFU
		O=C(O)c1ccccc1O [2-Hydroxy Benzoic Acid]	Lipase (RFU) [5]: 894.0225 RFU
	818.4396 RFU	O=C(O)CCCCCCCCCCCCCCC(=O)O [Hexadecanedioic acid]	
		CCCCCCCCCCCCCC(=O)OC(C)C [Isopropyl myristate]	Lipase (RFU) [4]: 1091.869 RFU
748.4559 RFU		O=C1c2c(O)cc(O)cc2O[C@H](c2ccc(O)cc2)[C@H]1O [Dihydrokaempferol]	
	1089.165 RFU	C=C1C(=O)O[C@@H]2C[C@@]3(C)CCCC(=C)[C@@H]3C[C@H]12 [Isoalantolactone]	
		CC(=O)C(=O)[O-].[Na+] [Sodium 2-oxopropanoate]	Lipase (RFU) [4]: 683.8023 RFU
1079.674 RFU		C=CC(C)(O)CCC=C(C)C (centres unmarked) [Linalool]	Lipase (RFU) [4]: 1079.408 RFU
	591.1487 RFU	CCCCCCCCCCCCCCCCCCC(=O)O [Nonadecanoic acid]	
	1128.759 RFU	NCCc1ccc(O)cc1 [Tyramine]	Lipase (RFU) [6]: 517.4752 RFU; Lipase (RFU) [4]: 955.4062 RFU
	724.886 RFU	N[C@H]1C(O)O[C@H](CO)[C@@H](O)[C@@H]1O (some centres unmarked) [Glucosamine]	
999.7036 RFU		Cc1cccs1 [Compound 2-Methylthiophene, 2-Methylthiophene]	
	709.6029 RFU	O=C(O)CNC(=O)Cc1ccccc1 [Phenylacetylglycine]	
787.6266 RFU		Nc1ncnc2c1ncn2[C@H]1C[C@H](O)[C@@H](COP(=O)([O-])OP(=O)([O-])OP(=O)([O-])O)O1.[Na+].[Na+].[Na+]	
		O=C(O)CP(=O)(O)O [Phosphono Acetic Acid]	Lipase (RFU) [3]: 973.2717 RFU
		CCOc1ccc2c(c1)C(C)=CC(C)(C)N2 [Ethoxyquin]	Lipase (RFU) [4]: 1095.72 RFU
	761.6081 RFU	C[C@H](CCC(=O)O)[C@H]1CC[C@H]2[C@@H]3C[C@H](O)[C@@H]4C[C@H](O)CC[C@]4(C)[C@H]3CC[C@]12C [Hyodeoxycholic acid]	
	798.7467 RFU	CC(C)C(O)C(=O)O (centres unmarked) [2-Hydroxy-3-methylbutanoic acid]	
	1196.894 RFU	Cn1c(N)nc2c(ncn2[C@@H]2O[C@H](CO)[C@@H](O)[C@H]2O)c1=O [Compound 1-Methylguanosine, 1-Methylguanosine]	
703.4998 RFU		CCc1ccc(C=O)cc1 [Compound 4-Ethylbenzaldehyde, 4-Ethylbenzaldehyde]	Lipase (RFU) [4]: 1140.945 RFU
	867.767 RFU	NCCCCC(=O)O [5-Aminovaleric acid]	

Compound	Lipase (RFU) [1]	Lipase (RFU) [2]	further results
CNCc1ccccc1 [N-Methylbenzylamine]	1178.371 RFU		
NCCc1c[nH]cn1.O=P(O)(O)O [Histamine (phosphate)]	856.2289 RFU		
CC1(C)S[C@@H]2[C@H](NC(=O)[C@H](N)c3ccccc3)C(=O)N2[C@H]1C(=O)O [Ampicillin]		986.5094 RFU	
COc1ccc(-c2cc(=O)c3c(OC)c(OC)c(OC)c(OC)c3o2)cc1 [Tangeretin]	1368.296 RFU		
CNCC(O)c1ccc(O)c(OC)c1 (centres unmarked) [Metanephrine]		993.9043 RFU	
CCCCCCCCCCCCCC(=O)O[C@H]1CC[C@@]2(C)C(=CC[C@H]3[C@@H]4CC[C@H]([C@H](C)CCCC(C)C)[C@@]4(C)CC[C@@H]32)C1 [Cholesterol myristate]	751.9361 RFU		

Where a SMILES comes first, the peptide text is derived from it.
